Results taken from patent publication US20040259952A1, “Formulations for oral administration of cromolyn sodium” (priority 2001, published 2004).

Columns and labels:
[1] = Single escalating dose study of Cromolyn/SNAC capsules: plasma pharmacokinetics of cromolyn and SNAC; settings: with SNAC
Description: This study was a randomized, open label, oral, single escalating dose administration study in healthy, fasted volunteers.
The study was carried out in two parts. […] Safety and pharmacokinetic measures were collected and evaluated following each dose.
On day one of each study treatment period, medication (capsules) was administered following an 8-hour overnight fast. The capsules were swallowed with up to 120 mL of water to the subjects in an upright position.
The process could be summarized as follows: First, sieve SNAC powder through a screen, or delump it using a pestle/mortar.

[2] = Multiple dose study (twice daily for ten days): plasma pharmacokinetics of cromolyn and SNAC; settings: twice daily dosing
Description: Two groups of human males were defined: group 1 consisted of 12 healthy male volunteers, and group 2 had 12 allergic male volunteers. […] The dosing regimen is illustrated in Table 7 below.
Each subject received oral dosing of the study medication twice a day for nine days. On the last day (i.e., day 10), only the morning dose was administered. The capsules were administered with up to 200 mL of water to the subjects in an upright position. The first dose of each day was administered following an overnight fast, and the second dose of each day was administered at least 1 hour before a meal or 4 hours after a meal. No food was allowed for at least 4 hours before the oral dosing.
Pharmacodynamics were measured for Group 1 and 2 by measuring the length and width of the wheal and flare reaction, and permanent records were generated by marking on transparent tapes and/or by photographs. For Group 2 only, pharmacodynamics were also measured by VAS scores and PNIF measurements before and after nasal provocation test.

## 5,5′-[(2-hydroxy-1,3-propanediyl)bis-(oxy)]4-oxo-4H-1-benzopyran-2-carboxylic acid [cromolyn]
[1]
  time within which cleared from the body: 6 to 8 h
[2]
  accumulation during multiple dose treatment: no accumulation
